From PubChem BioAssay AID624171 (National Center for Advancing Translational Sciences (NCATS), 2012)
The list shows a part of the results, in another mix than the full data. Calls of active or inactive are those of the source. Calls follow the shape of the dose curve; as a rule, active = well fitted activation curve with a large enough effect; inconclusive = small, poorly fitted or top-dose-only effect; inactive = flat fitted curve, though single readings scatter.

Test: qHTS of Nrf2 Activators; also: % of control where 0% means no effect; nearly all actives have a fitted effect of over 65% in size
Conditions: AREc32 ARE-luciferase reporter (MCF7-derived line), luminescence, 24 h; at 46.1 µM (top of the series) unless noted
Method in brief: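 Quantitative high-throughput format: AREc32 reporter cells, 1000 per well, received compound by pin transfer and were incubated 24 hr at 37 deg C, 5% CO2, before Steady-Glo luminescence detection.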

SMILES	activation
N#C/C(=C\c1ccc(N(CCBr)CCBr)cc1)C(N)=O	inactive: 12.1%
CC(=O)c1ccc(N2CC2c2ccncc2)cc1 (centres undefined)	inactive: 0.202%
CC(C)(C)C(=O)NC(Sc1ccccc1)C(Cl)(Cl)Cl (centres undefined)	inactive: -0.311%
CCc1cc(O)c([N+](=O)[O-])c(C)c1[N+](=O)[O-]	inactive: 0.175%
CCOc1ccc(C2=NCC(CBr)S2)cc1 (centres undefined)	inactive: 0.291%
O=P1(Nc2nc3ccc(Cl)cc3s2)COc2ccccc2O1 (centres undefined)	inactive: 4.27%
c1nnnn1CCn1cnnn1	inactive: -0.846%
O=P(Nc1nccs1)(c1ccccc1)c1ccccc1	inactive: 0.63%
CC(C)C(=O)NC(Sc1ccccc1)C(Cl)(Cl)Cl (centres undefined)	inactive: -0.501%
O=C(OC1CN2CCC1CC2)c1cccc(Cl)c1 (centres undefined)	inactive: -0.187%
Nc1ccc([As](=O)(O)c2ccc([N+](=O)[O-])cc2)cc1	inactive: -0.0472%
C(Cc1nn[nH]n1)Cc1nn[nH]n1	inactive: -0.22%
O=[As](O)(c1ccccc1)c1ccc(O)cc1	inactive: 0.145%
CC(=O)NC(SC(=S)N(C)C)C(Cl)(Cl)Cl (centres undefined)	inactive: 16.6%
O=[N+]([O-])c1ncn(CCn2cnc([N+](=O)[O-])n2)n1	inactive: 2.21%
O=[N+]([O-])c1ccc(O)c(/C=N/Nc2ccc([N+](=O)[O-])cc2[N+](=O)[O-])c1	inactive: 0.658%
C[C@H]1OP(=O)(Oc2ccccc2)[C@H](O)[C@H](O)[C@H]1N=[N+]=[N-] (some centres undefined)	inactive: -0.113%
O=P(Nc1nc2ccccc2s1)(c1ccccc1)c1ccccc1	inactive: 0.234%
CN(C)C1(CNC(=O)c2ccc(Cl)c(S(N)(=O)=O)c2)CCCCC1	inactive: -0.695%
O=P(Nc1ccccn1)(c1ccc(Br)cc1)c1ccc(Br)cc1	inactive: 0.328%
Nc1ccc(CCCCOc2ccccc2)cc1	inactive: 4.27%
COc1ccc(N)c([N+](=O)[O-])c1[N+](=O)[O-]	inactive: 15%

SMILES	activation
Nc1cccc([As](=O)(O)c2ccccc2)c1	inactive: -1.09%
NS(=O)(=O)c1cccc(NC(=O)COC(=O)C(O)(c2ccccc2)c2ccccc2)c1	inactive: -0.519%
O=P1(Nc2ccc(Br)cn2)COc2ccccc2OC1	inactive: -0.306%
Cc1ccc(OCC(=O)OC2CN3CCC2CC3)cc1 (centres undefined)	inactive: 0.0819%
O=[As](O)(c1cccs1)c1cccs1	inactive: -0.101%
Cc1ccc(S(=O)(=O)N(CCCN)CCCc2c(C)nc(N)[nH]c2=O)cc1	inactive: 0.538%
O=P1(Nc2ncccn2)COc2ccccc2OC1	inactive: 2.36%
CN(C)C1(CNC(=O)c2ccc(S(C)(=O)=O)cc2)CCCCC1	inactive: 0.0453%
CCCC1OP(=O)(Nc2ccccc2)OCC1CC (centres undefined)	inactive: 0.149%
O=C(/C=C/c1ccccc1)OC1CN2CCC1CC2 (centres undefined)	inactive: 0.393%
Cc1ccc(C(=O)OC2CN3CCC2CC3)cc1 (centres undefined)	inactive: 0.59%
CC1CCC(C(C)C)C(OP(=O)(Nc2ccccn2)c2ccccc2)C1 (centres undefined)	inactive: 4.55%
Cc1nn(-c2ccccc2)c2c1P(=O)(N1CCOCC1)N(C)C(c1ccccc1)=N2 (centres undefined)	inactive: 0.122%
CN(C(=O)Cc1ccc(Cl)c(Cl)c1)[C@@H]1CCCC[C@H]1N1CCCC1	inactive: 2.7%
CC(C)/C=N\N=C(\N)N[N+](=O)[O-]	inactive: 0.481%
CC1(CBr)Cn2c(nc3ccccc3c2=O)S1 (centres undefined)	inactive: 2.34%
COc1ccccc1CNC(=O)COC(=O)C(O)(c1ccccc1)c1ccccc1	inactive: -0.771%
CC(C)(C)C(=O)NC(Sc1ncccn1)C(Cl)(Cl)Cl (centres undefined)	inactive: -0.0193%
Clc1n[nH]nc1-c1nn[nH][15n]1	inactive: 0.0982%
O=P1(N(CCCl)CCCl)NCCC(C(F)(F)F)O1 (centres undefined)	inactive: -0.227%
CCOP(=O)(NC(=NC(C)c1ccccc1)NC(C)c1ccccc1)OCC (centres undefined)	inactive: -0.832%
CCC1=CC2Cc3nc4ccc(Cl)cc4c(N)c3C(C1)C2 (centres undefined)	inactive: -5.27%

SMILES	activation
O=P1(Nc2ccccn2)COc2ccccc2OC1	inactive: 4.75%
CN(CCCl)Cc1cc(Cl)c(NC2=NCCN2)c(Cl)c1	inactive: 0.636%
CCOP(=O)(Nc1ccc(C)cn1)OCC	inactive: 0.386%
CCOP(=O)(Nc1cccc2ccccc12)OCC	inactive: 3.94%
COc1cc(C2NCCC3(OCCO3)C2(C)C)cc(OC)c1OC (centres undefined)	inactive: -0.587%
Cc1ccc(NCCc2c([N+](=O)[O-])cc([N+](=O)[O-])cc2[N+](=O)[O-])cc1	inactive: 24.2%
Nc1cccc2c([As](=O)(O)O)cccc12	inactive: -0.377%
CCCOP(=S)(Nc1nc(N)cc(=O)[nH]1)OCCC	inactive: -0.771%
O=[As](O)(c1cccc(O)c1)c1cccc(O)c1	inactive: 2.76%
Cc1cccc(OCC(=O)OC2CN3CCC2CC3)c1 (centres undefined)	inactive: 0.606%
O=C(OC1CN2CCC1CC2)c1ccc(Cl)cc1 (centres undefined)	inactive: -0.47%
CS(=O)(=O)c1ccc(Cl)c(NC(=O)COC(=O)C(O)(c2ccccc2)c2ccccc2)c1	inactive: 0.0573%
COc1cc(C(=O)NCC2(N3CCOCC3)CCCCC2)cc(Cl)c1OC(C)C	inactive: 2.6%
O=[As](O)(O)c1cccnc1	inactive: -0.29%
CN(C(=O)Cc1ccccc1)[C@@H]1CC[C@]2(CCCO2)C[C@H]1N1CCCC1	inactive: 3.53%
CCOP1(=S)c2c(C)nn(CCC#N)c2N=C(c2ccc(F)cc2)N1C (centres undefined)	inactive: -0.352%
N#CCCN(C(=O)COC(=O)C(O)(c1ccccc1)c1ccccc1)c1ccc(F)cc1	inactive: 0.096%
CN(C(=O)Cc1ccc(Cl)c(Cl)c1)[C@H]1CC[C@@]2(CCCO2)C[C@@H]1N1CCCC1	inactive: -1.11%
CN(C)C(=O)c1cc([N+](=O)[O-])cc2c1-c1c(cc([N+](=O)[O-])cc1[N+](=O)[O-])C2=O	inactive: -1.31%
O=[N+]([O-])c1ccc2c(c1)nnn2O	inactive: 0.295%
